Molecules are shown by their SMILES.

Protein sequences, listed by entry. Tags and fused reporters are not part of them. Lines headed by an entry give the natural chain unless they say otherwise; changes in a name come on top.
UniProt Q96PN6: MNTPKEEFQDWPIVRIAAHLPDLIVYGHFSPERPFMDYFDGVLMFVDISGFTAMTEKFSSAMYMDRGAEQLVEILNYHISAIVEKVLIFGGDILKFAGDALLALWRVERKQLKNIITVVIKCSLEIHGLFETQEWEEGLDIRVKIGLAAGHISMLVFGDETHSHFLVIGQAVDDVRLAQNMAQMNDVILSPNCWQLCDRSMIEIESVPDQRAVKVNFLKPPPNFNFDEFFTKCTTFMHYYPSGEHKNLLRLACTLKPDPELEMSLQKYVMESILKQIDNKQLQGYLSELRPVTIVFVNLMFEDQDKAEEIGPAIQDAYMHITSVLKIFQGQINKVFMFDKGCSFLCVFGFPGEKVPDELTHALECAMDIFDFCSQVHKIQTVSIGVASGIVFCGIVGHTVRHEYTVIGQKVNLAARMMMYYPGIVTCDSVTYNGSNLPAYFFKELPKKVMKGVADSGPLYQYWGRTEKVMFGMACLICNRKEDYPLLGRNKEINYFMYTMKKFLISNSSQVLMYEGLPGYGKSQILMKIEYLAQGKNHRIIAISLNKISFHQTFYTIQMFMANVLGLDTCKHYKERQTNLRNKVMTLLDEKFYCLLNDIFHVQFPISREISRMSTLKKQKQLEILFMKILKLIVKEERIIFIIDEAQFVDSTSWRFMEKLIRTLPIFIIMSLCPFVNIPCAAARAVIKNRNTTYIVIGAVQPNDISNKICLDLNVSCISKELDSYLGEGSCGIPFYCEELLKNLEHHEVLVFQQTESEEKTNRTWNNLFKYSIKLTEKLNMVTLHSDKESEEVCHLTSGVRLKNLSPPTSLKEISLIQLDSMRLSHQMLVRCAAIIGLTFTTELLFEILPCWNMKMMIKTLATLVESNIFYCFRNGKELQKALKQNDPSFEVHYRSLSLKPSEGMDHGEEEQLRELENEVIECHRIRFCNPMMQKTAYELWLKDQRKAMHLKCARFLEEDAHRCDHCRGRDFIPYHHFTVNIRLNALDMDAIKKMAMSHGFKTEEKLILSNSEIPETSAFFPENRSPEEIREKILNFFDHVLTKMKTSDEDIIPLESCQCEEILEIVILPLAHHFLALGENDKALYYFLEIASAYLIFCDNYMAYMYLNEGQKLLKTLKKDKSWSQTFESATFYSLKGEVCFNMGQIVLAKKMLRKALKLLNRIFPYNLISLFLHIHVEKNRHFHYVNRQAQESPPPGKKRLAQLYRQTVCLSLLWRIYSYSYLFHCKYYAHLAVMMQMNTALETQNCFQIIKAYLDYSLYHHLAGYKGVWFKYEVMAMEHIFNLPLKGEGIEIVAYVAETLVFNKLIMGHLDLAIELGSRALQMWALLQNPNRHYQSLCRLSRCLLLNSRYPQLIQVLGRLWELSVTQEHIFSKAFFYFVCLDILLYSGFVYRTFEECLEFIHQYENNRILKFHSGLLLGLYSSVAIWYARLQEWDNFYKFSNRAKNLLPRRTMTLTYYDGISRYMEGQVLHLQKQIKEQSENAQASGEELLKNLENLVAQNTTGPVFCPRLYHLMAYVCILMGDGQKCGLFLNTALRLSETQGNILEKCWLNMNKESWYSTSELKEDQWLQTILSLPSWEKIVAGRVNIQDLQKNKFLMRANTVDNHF

The assay deals with purified recombinant human sAC protein (Homo sapiens, UniProt Q96PN6). Description: biochemical. It is filed as biochemical. The note with it: 1 mM ATP, 2 mM CaCl2, 4 mM MgCl2, 40 mM NaHCO3. How it is done:
Assays for sAC activity using purified protein were performed in 100 μl reactions containing 4 mM MgCl2, 2 mM CaCl2, 1 mM ATP, 40 mM NaHCO3, 50 mM Tris pH 7.5, and 3 mM DTT. Each reaction contained ˜1,000,000 counts of α-^32P labeled ATP.
All in vitro adenylyl cyclase activity assays were performed via the “two-column” method measuring the conversion of [α-^32P] ATP into [^32P] cAMP, as previously described [References 81, 82]. Briefly, human sACt protein [Reference 21] was incubated in buffer containing 50 mM Tris-HCl, pH 7.5, 4 mM MgCl2, 2 mM CaCl2, 1 mM ATP, 3 mM DTT, 40 mM NaHCO3 in the presence of the indicated concentrations of different sAC inhibitors or vehicle (DMSO).
In general, IC50 refers to the point on the concentration scale where inhibition reaches its midpoint. For `Nc1nc(Cl)cc(-n2nc(C(F)F)nc2Cc2ccccc2OCC(=O)N2CCOCC2)n1` [Example 118, 2-[2-[[2-(2-amino-6-chloro-pyrimidin-4-yl)-5-(difluoromethyl)-1,2,4-triazol-3-yl]methyl]phenoxy]-1-morpholino-ethanone], the IC50 worked out at 160 nM.

Regarding `Cn1cc(Cc2cccc(Oc3ccccc3)c2)c(-c2cc(Br)nc(N)n2)n1` [Example 71, 4-bromo-6-[1-methyl-4-[(3-phenoxyphenyl)methyl]pyrazol-3-yl]pyrimidin-2-amine], the IC50 was about 1000 nM. As for `Cn1cc(Cc2cccc(C(=O)OCc3ccnc(N)c3)c2)c(-c2cc(Cl)nc(N)n2)n1` [Example 63], the IC50 was determined as 0.455 nM.

As for `Cc1ccc(-c2cn(C)nc2-c2cc(Cl)nc(N)n2)s1` [Example 3], the IC50 is 1000 to 10000 nM. Consider `Cn1nc(-c2cc(Cl)nc(N)n2)c(Cc2ccccc2)c1C(=O)OCc1ccc(N)nc1` [Example 73], for which the IC50 was about 1000 nM. With `Cc1c(Cn2ccnn2)c(-c2cc(Cl)nc(N)n2)nn1C` [Example 23], the IC50 was found to be 700 nM. In the case of `CN1CCCC1COC(=O)c1cccc(Cc2cn(C)nc2-c2cc(Cl)nc(N)n2)c1` (stereo not drawn) [Example 61], the IC50 is 390 nM. To `Nc1nc(Cl)cc(-c2nn(C(F)F)cc2Cc2ccccc2OCCN2C[C@H]3C[C@@H]2CO3)n1` [Example 124] belongs 2 nM; to `Cn1cc(Cc2ccccc2OCC(=O)N2CCC(CO)CC2)c(-c2cc(Cl)nc(N)n2)n1` [Example 134], 15 nM.

For `COc1cccc(Cc2cn(C)nc2-c2cc(Cl)nc(N)n2)c1` [Example 25], the IC50 amounted to 289 nM. Under `Cn1cc(Cc2cccc(Oc3ccccc3)c2)c(-c2cc(Cl)nc(N)n2)n1` [Example 7] stands 220 nM; under `Cn1cc(Cc2ccccc2OCCN2CC(CO)(CCl)C2)c(-c2cc(Cl)nc(N)n2)n1` [Example 175, [1-[2-[2-[[3-(2-amino-6-chloro-pyrimidin-4-yl)-1-methyl-pyrazol-4-yl]methyl]phenoxy]ethyl]-3-(chloromethyl)azetidin-3-yl]methanol], 20 nM; under `Cc1nc(Cc2ccccc2)n(-c2cc(Cl)nc(N)n2)n1` [Example 116], 1400 nM. Under `Nc1nc(Cl)cc(-c2nn(C(F)F)cc2Cc2cc(C(=O)NCCN3CCOCC3)ccc2C2CC2)n1` [Example 143] stands 40 nM; under `Cn1cc(Cc2ccccc2OCCN2CCC(C(=O)O)CC2)c(-c2cc(Cl)nc(N)n2)n1` [Example 97], 250 nM; under `Cc1c(Cn2ccccc2=O)c(-c2cc(Cl)nc(N)n2)nn1C` [Example 29], about 1000 nM. To `Cn1cc(Cc2cccc(F)c2OCCN2CCNC(=O)C2)c(-c2cc(Cl)nc(N)n2)n1` [Example 174] belongs 25 nM. As to `COc1ccccc1Cc1cn(C(F)F)nc1-c1cc(Cl)nc(N)n1` [Example 161], the IC50 is 16 nM.
